# PubChem BioAssay AID652128 (Broad Institute, 2013)
# The list shows a part of the results, in another mix than the full data. Results filed as inconclusive are left out. Activity calls are given as the source filed them.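 How the source made its calls: active means fitted half-maximal concentration for signal loss at or below twice the highest dose tested, in every separate run (actives reach about 64 µM in these data); inconclusive means runs disagree, or flat partial signal loss, or poor fit; inactive means the rest.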
# Experiment: DNA binders displacing acridine orange – biochemical, fluorescence polarization, cherry-pick, artefact control for RAD52 inhibitor project, dose response (AID 652128)
# Settings: Salmon sperm DNA/acridine orange FP displacement, DNA binding
compound,measurement,value
CN(CCCl)Cc1cc(Cl)c(NC2=NCCN2)c(Cl)c1,outcome,inactive
